According to ChEMBL document CHEMBL1130933, “Structure-based design of N-[2-(1-piperidinylethyl)]-N'-[2-(5-bromopyridyl)]-thiourea and N-[2-(1-piperazinylethyl)]-N'-[2-(5-bromopyridyl)]-thiourea as potent non-nucleoside inhibitors of HIV-1 reverse transcriptase” (Bioorg Med Chem Lett, 1998):

Assay: Selective index was evaluated from inhibitory concentrations of compound
Format: functional

## Cc1cn([C@H]2C[C@H](N=[N+]=[N-])[C@@H](CO)O2)c(=O)[nH]c1=O [ZIDOVUDINE]
  Selectivity index: 8000
